Data taken from PubChem BioAssay AID727 (The Scripps Research Institute Molecular Screening Center, 2007).
Only a part is listed here, and it is no random draw. Active and inactive are the calls of the source. Cut-off read from the data, not from the text of the source: active = inhibition above about 19%; inactive = the rest.

The chains behind the UniProt entries cited, without tags or fusion partners.
UniProt Q05397, whole entry: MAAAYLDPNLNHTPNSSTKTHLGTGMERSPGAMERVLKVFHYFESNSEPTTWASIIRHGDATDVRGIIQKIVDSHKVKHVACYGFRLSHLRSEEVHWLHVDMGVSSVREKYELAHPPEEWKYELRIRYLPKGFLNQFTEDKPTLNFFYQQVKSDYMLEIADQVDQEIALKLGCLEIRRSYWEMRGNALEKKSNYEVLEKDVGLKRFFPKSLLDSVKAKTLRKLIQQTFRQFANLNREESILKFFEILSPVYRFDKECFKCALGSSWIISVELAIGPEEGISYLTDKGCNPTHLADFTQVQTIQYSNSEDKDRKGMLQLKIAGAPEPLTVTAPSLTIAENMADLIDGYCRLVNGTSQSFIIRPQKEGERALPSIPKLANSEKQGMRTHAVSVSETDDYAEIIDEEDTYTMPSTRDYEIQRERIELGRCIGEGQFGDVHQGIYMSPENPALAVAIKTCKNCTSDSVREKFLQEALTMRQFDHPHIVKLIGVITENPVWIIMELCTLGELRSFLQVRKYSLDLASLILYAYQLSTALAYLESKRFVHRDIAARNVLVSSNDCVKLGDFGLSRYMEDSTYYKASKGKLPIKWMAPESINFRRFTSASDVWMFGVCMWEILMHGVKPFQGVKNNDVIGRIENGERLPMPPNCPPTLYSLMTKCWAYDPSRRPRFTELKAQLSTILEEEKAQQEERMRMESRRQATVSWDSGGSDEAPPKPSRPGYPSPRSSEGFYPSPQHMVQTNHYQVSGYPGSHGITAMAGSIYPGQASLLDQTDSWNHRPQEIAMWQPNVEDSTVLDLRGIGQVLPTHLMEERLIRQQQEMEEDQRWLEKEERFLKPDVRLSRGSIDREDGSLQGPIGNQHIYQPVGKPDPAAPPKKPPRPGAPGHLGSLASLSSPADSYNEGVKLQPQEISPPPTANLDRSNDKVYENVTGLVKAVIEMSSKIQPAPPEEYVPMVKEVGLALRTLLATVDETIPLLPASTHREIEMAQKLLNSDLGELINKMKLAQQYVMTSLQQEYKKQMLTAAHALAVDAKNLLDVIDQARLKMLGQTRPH

biological target: Focal adhesion kinase 1 (Homo sapiens) (UniProt Q05397); test: human PTK2 enzyme activity blockers – biochemical, primary screen (AID 727); details: biochemical FAK kinase activity assay; stronger effect = higher value;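 tested at 7 µM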;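 note: 0% = DMSO and 100% = reference compound high control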

Row | Structure (SMILES) | inhibition
1 | Cc1nc2ccc3ccccc3c2s1.O=[N+]([O-])c1cc([N+](=O)[O-])c(O)c([N+](=O)[O-])c1 | inactive: 5.29%
2 | COc1ccccc1OP(C)(=O)Nc1c(C)cccc1C (stereo not given) | inactive: -1.03%
3 | Cc1cc(C)cc(OP(C)(=O)Nc2ccccn2)c1 (stereo not given) | inactive: -1.07%
4 | Cc1ccc(C)c(NP(C)(=O)Oc2ccccc2)c1 (stereo not given) | inactive: 1.99%
5 | Cc1cc(C)cc(OP(C)(=O)Nc2ccc(C)cc2C)c1 (stereo not given) | inactive: 1.07%
6 | COc1ccc(OP(C)(=O)Nc2cccc(F)c2)cc1 (stereo not given) | inactive: -1.6%
7 | CP(=S)(Nn1cnnc1)Oc1ccccc1 (stereo not given) | inactive: 2.57%
8 | CP(=O)(Nc1ccccn1)Oc1ccc(Cl)cc1 (stereo not given) | inactive: -1.37%
9 | CP(=O)(NC(=O)Nc1ccccc1)Oc1ccccc1 (stereo not given) | inactive: 3.65%
10 | CP(=O)(Nc1ccc(Cl)cc1)Oc1ccc(F)cc1 (stereo not given) | inactive: -1.6%
11 | CC(C)(C)c1ccc(OP(C)(=O)O)cc1 | inactive: -0.28%
12 | CCN(CC)CC(O)COC(=O)C(O)(c1ccccc1)C1CCCCC1 (stereo not given) | inactive: 0.6%
13 | CP(=O)(Oc1ccccc1)N1CCOC1=O (stereo not given) | inactive: -1.19%
14 | COc1ccccc1OP(C)(=O)Nc1c(C)n(C)n(-c2ccccc2)c1=O (stereo not given) | inactive: -1.94%
15 | CP(=O)(OC12CC3CC(CC(C3)C1)C2)OC12CC3CC(CC(C3)C1)C2 | inactive: 0.36%
16 | Cc1nc2ccc3ccccc3c2o1.O=[N+]([O-])c1cc([N+](=O)[O-])c(O)c([N+](=O)[O-])c1 | inactive: -4.16%
17 | COc1ccccc1OP(C)(=O)Nc1ccc(C)c(C)c1 (stereo not given) | inactive: -2.33%
18 | Cc1c(NP(C)(=O)Oc2ccc(C(C)C)cc2)c(=O)n(-c2ccccc2)n1C (stereo not given) | inactive: 3.07%
19 | CCc1ccc(OP(C)(=O)O)cc1 | inactive: -5.27%
20 | COc1ccccc1OP(C)(=O)Nc1ccc(C)cc1C (stereo not given) | inactive: 2.51%
21 | CP(=O)(Nc1ccccn1)Oc1ccccc1 (stereo not given) | inactive: 0.9%
22 | CN(C)CCOC(=O)C(O)(c1ccccc1)C1CCCC1 (stereo not given) | inactive: 0.23%
23 | COc1ccc(OP(C)(=O)Nc2ccccn2)cc1 (stereo not given) | inactive: -1.31%
24 | CP(=O)(Nc1ccccc1F)Oc1ccccc1 (stereo not given) | inactive: -0.99%
25 | CCN(CC)CCCOC(=O)C(O)(c1ccccc1)C1CCCCC1 (stereo not given) | inactive: -0.42%
26 | CP(=O)(Nc1ccccc1)Oc1ccc(F)cc1 (stereo not given) | inactive: 0.09%
27 | COc1ccc(OP(C)(=O)Nc2cccc(Br)c2)cc1 (stereo not given) | inactive: -2.4%
28 | CN(C)CCOC(=O)C(O)(c1ccccc1)C1CCCCC1 (stereo not given) | inactive: -7.03%
29 | CP(=O)(Nc1ccc2c(c1)OCCO2)Oc1ccccc1 (stereo not given) | inactive: -3.14%
30 | CCOP(C)(=S)SCC(=O)NC(C)(CC)C(=O)O (stereo not given) | inactive: -0.72%
